Measured values: patent US20260028326A1, “COMPOUND BASED ON ISOINDOLINE-SUBSTITUTED GLUTARIMIDE BACKBONE AND USE THEREOF” (GLUETACS THERAPEUTICS (SHANGHAI) CO., LTD., priority 2022, published 2026)

Assays:
SW620 cells = test: Tumor cell proliferation IC50 (CCK-8), SW620; details: Homo sapiens, SW-620, 96 h, read-out: IC50 for inhibiting the proliferation of tumor cells, SW620
Ramos cells = test: Tumor cell proliferation IC50 (CCK-8), Ramos; details: Homo sapiens, 72 h, read-out: IC50 for inhibiting the proliferation of tumor cells, Ramos
CCRF-CEM cells = test: Tumor cell proliferation IC50 (CCK-8), CCRF-CEM; details: Homo sapiens, 96 h, read-out: IC50 for inhibiting the proliferation of tumor cells, CCRF-CEM;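 further: cell viability measured with CCK-8 reagent after compound treatment, IC50 taken from plotted growth inhibition curves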
MV-4-11 cells = test: Tumor cell proliferation IC50 (CCK-8), MV-4-11; details: Homo sapiens, MV4-11, 96 h, read-out: IC50 for inhibiting the proliferation of tumor cells, MV-4-11
MDA-MB-231 cells = test: Tumor cell proliferation IC50 (CCK-8), MDA-MB-231; details: Homo sapiens, MDA-MB-231, 96 h, read-out: IC50 for inhibiting the proliferation of tumor cells, MDA-MB-231
MM.1R cells = test: Tumor cell proliferation IC50 (CCK-8), MM.1R; details: Homo sapiens, 72 h, read-out: IC50 for inhibiting the proliferation of tumor cells, MM.1R
SU-DHL-4 cells = test: Tumor cell proliferation IC50 (CCK-8), SU-DHL-4; details: Homo sapiens, SU-DHL-4, 72 h, read-out: IC50 for inhibiting the proliferation of tumor cells, SU-DHL-4
SU-DHL-6 cells = test: Tumor cell proliferation IC50 (CCK-8), SU-DHL-6; details: Homo sapiens, SU-DHL-6, 72 h, read-out: IC50 for inhibiting the proliferation of tumor cells, SU-DHL-6
Mino cells = test: Tumor cell proliferation IC50 (CCK-8), Mino; details: Homo sapiens, 72 h, read-out: IC50 for inhibiting the proliferation of tumor cells, Mino;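 further: cell viability assessed with CCK-8 reagent after compound exposure, IC50 derived from plotted growth inhibition curves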
Daudi cells = test: Tumor cell proliferation IC50 (CCK-8), Daudi; details: Homo sapiens, read-out: IC50 for inhibiting the proliferation of tumor cells, Daudi;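 further: cell viability read with CCK-8 reagent after compound exposure of Daudi cells, IC50 derived from plotted growth inhibition curves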
MM.1S cells = test: Tumor cell proliferation IC50 (CCK-8), MM.1S; details: Homo sapiens, MM1.S, 72 h, read-out: IC50 for inhibiting the proliferation of tumor cells, MM.1S;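 further: viability of cultured cells read by CCK-8 reagent after compound exposure, growth inhibition curves fitted to derive IC50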
Kasumi-1 cells = test: Tumor cell proliferation IC50 (CCK-8), Kasumi-1; details: Homo sapiens, Kasumi 1, 72 h, read-out: IC50 for inhibiting the proliferation of tumor cells, Kasumi-1
TMD8 cells = test: Tumor cell proliferation IC50 (CCK-8), TMD8; details: Homo sapiens, TMD8, 72 h, read-out: IC50 for inhibiting the proliferation of tumor cells, TMD8

IC50 (SW620 cells): > 10 µM
IC50 (Ramos cells): > 10 µM
IC50 (CCRF-CEM cells): > 10 µM
IC50 (MV-4-11 cells): > 10 µM
IC50 (MDA-MB-231 cells): > 10 µM
IC50 (MM.1R cells): > 10 µM
IC50 (SU-DHL-4 cells): > 10 µM
IC50 (SU-DHL-6 cells): > 10 µM
IC50 (Mino cells): > 10 µM
IC50 (Daudi cells): > 10 µM
IC50 (MM.1S cells): > 10 µM
IC50 (Kasumi-1 cells): > 10 µM
IC50 (TMD8 cells): > 10 µM
Compound: Nc1cccc2c1CN(C1CCC(=O)NC1=O)C2=O (stereo not shown) [lenalidomide, reference compound]
